Source: US7696246B2 (Ligand Pharmaceuticals Incorporated, priority 1999, dated 2010)

Amino acid sequences for entries named in this document (tags omitted).
UniProt P10275, whole entry: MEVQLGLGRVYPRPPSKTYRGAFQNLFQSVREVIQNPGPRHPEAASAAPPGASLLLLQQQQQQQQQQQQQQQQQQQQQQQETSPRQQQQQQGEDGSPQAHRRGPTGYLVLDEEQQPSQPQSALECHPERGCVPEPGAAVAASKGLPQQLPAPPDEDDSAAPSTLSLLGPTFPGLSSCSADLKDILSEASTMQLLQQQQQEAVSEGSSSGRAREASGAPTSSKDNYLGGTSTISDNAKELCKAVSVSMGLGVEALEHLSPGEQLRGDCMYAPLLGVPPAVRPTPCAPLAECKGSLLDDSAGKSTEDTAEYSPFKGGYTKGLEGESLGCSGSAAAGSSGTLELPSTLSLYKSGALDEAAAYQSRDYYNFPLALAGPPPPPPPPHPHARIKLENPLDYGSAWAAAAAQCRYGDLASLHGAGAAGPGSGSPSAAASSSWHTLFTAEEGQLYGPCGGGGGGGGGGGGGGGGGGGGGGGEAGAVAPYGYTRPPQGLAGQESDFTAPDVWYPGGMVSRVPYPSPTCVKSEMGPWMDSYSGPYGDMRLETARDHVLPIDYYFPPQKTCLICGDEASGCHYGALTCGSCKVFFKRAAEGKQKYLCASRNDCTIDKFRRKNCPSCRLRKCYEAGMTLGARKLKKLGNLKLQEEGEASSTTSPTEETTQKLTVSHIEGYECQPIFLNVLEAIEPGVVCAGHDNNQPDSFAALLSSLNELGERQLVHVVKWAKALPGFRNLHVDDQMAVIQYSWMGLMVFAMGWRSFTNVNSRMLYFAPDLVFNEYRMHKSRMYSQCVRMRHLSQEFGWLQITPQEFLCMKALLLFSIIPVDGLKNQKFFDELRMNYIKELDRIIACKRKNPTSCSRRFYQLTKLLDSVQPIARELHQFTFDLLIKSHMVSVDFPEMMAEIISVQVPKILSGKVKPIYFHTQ

How the values were obtained:
[1] = molecular target: T1, human AR (Homo sapiens, UniProt P10275); experiment: Co-transfection assay, AR agonist activity (CV-1 cells, MTV-LUC reporter); assay type: cell-based
[2] = molecular target: T1, human AR; experiment: AR whole cell competitive binding assay (COS-1 cells, 3H-DHT); conditions: read-out: AR Binding Ki, 1 nM 3H-DHT, Cheng-Prusoff

`CC=C(CC)c1ccc2[nH]c(=O)cc(C(F)(F)F)c2c1` was tested, and the “AR Agonist CV-1 Cells Efficacy (%)” value ([1]; percent maximal response relative to reference agonist DHT) was 48%, the EC50 ([1]; read-out: AR Agonist CV-1 Cells Potency, agonist potency EC50) was 848 nM and the Ki [2] was 36 nM.
